In patent US20200386744A1, “NOVEL SCREENING METHOD FOR TGF-BETA INHIBITOR” (The Doshisha, priority 2017, published 2020):

Test system: immortalized Fuchs' endothelial corneal dystrophy cells (iFECD)
Experiment: Caspase 3/7 activity (Caspase-Glo 3/7 Assay) in iFECD under TGF-β2 stimulation, primary and secondary screening
Type: cell-based
Conditions: Homo sapiens, 28 h, secondary screening Caspase 3/7 activity divided by cell viability, read-out: Caspase 3/7 activity/Viable cell number (%)
Protocol: 7×10^3 immortalized Fuchs' endothelial corneal dystrophy cells were seeded on a 96-well plate and were cultured for 24 hours under the condition of 5% CO2 at 37° C. Dulbecco's Modified Eagle Medium (DMEM) (nacalai tesque, 26252-94)+10% FBS (Biological Industries/04-001-1A)+1% penicillin-streptomycin (nacalai tesque, 26252-94) was used as the medium. Next, TGF-β2 (manufacturer: R&D Systems, Inc., distributor: Wako Pure Chemical Industries, Ltd./manufacturer codes 302-B2-002, 302-B2-010, distributor codes: 553-62881, 559-62883) (5 ng/mL) alone, or both TGF-β2 (5 ng/mL) and each agent of SCREEN-WELL® FDA Approved Drug Library V2, Japan version (10 μM) were added. After 28 hours under the condition of 5% CO2 at 37° C., cell morphology was observed using a phase difference microscope. Caspase 3/7 activity was then measured using Caspase-Glo 3/7 Assay (Promega, #G8091). DMEM+2% FBS+1% P/S was used as the medium. Caspase 3/7 activity and cell viability in this example were measured using Veritas™ Microplate Luminometer. Such a device enables many samples to be simultaneously measured.
The control group was supplemented with a solvent of each reagent, i.e., DMSO (Dimethyl Sulfoxide, Sterile-filtered) (nacalai tesque, 13408-64). […] Caspase activity was measured after being cultured in Dulbecco's Modified Eagle Medium (DMEM)+2% fetal bovine serum (FBS)+1% penicillin/streptomycin (P/S) for 28 hours. […]

`COc1cc(NC(C)CCCN)c2ncccc2c1` (stereo not shown) [Primaquine Phosphate] gave an activity at 10 µM of 99.4%.
